{"source": "PubChem BioAssay AID819", "about": "(Columbia University Molecular Screening Center, 2007)", "note": "The entries are a selection whose mix differs from that of the whole data set. Some results for these compounds are left out of this collection, so the calls shown say nothing about other tests. Active and inactive are the calls of the source.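 How the source made its calls: active means activation above 40%, about the mean plus 3 SD, also judged a hit on visual image review; inconclusive means activation above 40% but not a hit on visual review; inactive means activation not above 40% and no visual hit.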"}
{"test": "enhancers of NFkB p65 translocation in HUVEC – imaging, IL-1B stimulus, high-content imaging, primary screen (AID 819);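 further: percent activation is computed from the nuclear over cytoplasmic p65 intensity ratio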", "conditions": "HUVEC IL-1B NFkB p65 nuclear translocation imaging; at 2 µM; stronger effect = higher value"}
{"smiles": "CC(C)N1C(=O)CC2(CCN(CCOC(=O)C(O)(c3ccccc3)c3ccccc3)CC2)C1=O", "activation": "inactive: -9.44%"}
{"smiles": "CN(C)c1cccc(C(=O)NCC2(N(C)C)CCCCC2)c1", "activation": "inactive: 3.76%"}
{"smiles": "O=C(OC1CN2CCC1CC2)C(CO)(c1ccccc1)c1ccccc1", "note": "(stereo not drawn)", "activation": "inactive: 7.28%"}
